Data on one compound can be found in ChEMBL document CHEMBL1141241, “3,6-disubstituted coumarins as mechanism-based inhibitors of thrombin and factor Xa” (J Med Chem, 2005).

The term IC50 denotes the concentration that gives 50% inhibition. A high value points to a need for much substance.

For the assay, the target named is Prothrombin (Homo sapiens, UniProt P00734). Nature of the assay: Inhibitory activity against human thrombin.

The structures appear in SMILES notation.

As for `CC1CNc2c(cccc2S(=O)(=O)N[C@@H](CCCNC(=N)N)C(=O)N2CC[C@@H](C)C[C@@H]2C(=O)O)C1` (stereo partly specified) [ARGATROBAN], the IC50 came out at 0.331 µM.
